This note sets out measurements from PubChem BioAssay AID504408 (Broad Institute, 2011).

This is a selection; strong and weak results do not stand in their true shares. Active and inactive are the calls of the source.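 The calls were made as follows: active = mean replicate activation of at least 50% with a set share of replicates each reaching 50%; inconclusive = only one of those two conditions met; inactive = mean below 50% and too few replicates reaching it.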

This assay can be described thus: HSF-1 activators, primary screen, NIH3T3-HGL cells, MG132 stress, luminescence, single point (AID 504408).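 Also: 0% = median of the neutral control wells and 100% = twice that signal.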 Particulars: NIH3T3-HGL HSF-1 luciferase reporter, MG132, 8 h; at 9 µM; hits give high values; 100% = twice DMSO control signal.
On to `Cc1cccc(C)c1OP(C)(=O)Nc1ccc(SC(F)(F)F)cc1` (stereo not drawn), for which the activation is inactive: 7.26%.

On to `CP(=O)(Nc1ccc(SC(F)(F)F)cc1)Oc1ccc(Cl)cc1` (stereo not drawn), for which the activation was inactive: 4.58%.

`CP(=O)(Oc1ccccc1)OC(c1ccccc1)C(F)(F)F` (stereo not drawn): the activation was inactive: -5.14%.

As for `CP(=O)(Nc1ccccn1)Oc1ccc(Cl)cc1` (stereo not drawn), the activation was inactive: -5.39%.

In the case of `CCOC(=O)c1ccc(NP(C)(=O)Oc2ccc(OC)cc2)cc1` (stereo not drawn), the activation was inactive: -15%.

As for `O=[N+]([O-])c1cc([N+](=O)[O-])c(O)c([N+](=O)[O-])c1.c1ccc(Oc2ccncc2)cc1`, the activation was inactive: -10.8%.

Consider `CCOP(C)(=S)SCC(=O)NC(C)C(=O)O` (stereo not drawn), for which the activation is inactive: -7.63%.

Turning to `O=[N+]([O-])c1cc([N+](=O)[O-])c(-n2nnc3ccccc32)c([N+](=O)[O-])c1`, the activation was inactive: -6.3%.

Take `O=[N+]([O-])c1cc([N+](=O)[O-])c(-c2cnn(-c3ccccc3)c2)c([N+](=O)[O-])c1`: the activation is inactive: 11.7%.

For `O=[N+]([O-])c1cc([N+](=O)[O-])c(Nc2nnnn2CCO)c([N+](=O)[O-])c1`, the activation was inactive: -2.46%.

As to `CCOC(=O)C(CC)C1=NC(C)(C)Cc2ccccc21.O=[N+]([O-])c1cc([N+](=O)[O-])c(O)c([N+](=O)[O-])c1` (stereo not drawn), the activation was inactive: -4.97%.

For `CCCOc1ccc(NP(C)(=O)Oc2ccc(Cl)cc2)cc1` (stereo not drawn), the activation was inactive: 8.97%.

On to `CP(=O)(Nc1ccc(SC(F)(F)F)cc1)Oc1ccccc1` (stereo not drawn), for which the activation is inactive: 39.2%.

Take `COc1ccccc1OP(C)(=O)Nc1c(C)cccc1C` (stereo not drawn): the activation is inactive: 9.8%.

In the case of `CN1CCCCC1COC(=O)C1(O)c2ccccc2CCc2ccccc21` (stereo not drawn), the activation was inactive: -6.08%.

Regarding `O=C(O)c1cccc(Nc2c([N+](=O)[O-])cc([N+](=O)[O-])cc2[N+](=O)[O-])c1`, the activation was inactive: -21.4%.

In the case of `CC1=NCCc2c1[nH]c1ccccc21.O=[N+]([O-])c1cc([N+](=O)[O-])c(O)c([N+](=O)[O-])c1`, the activation is inactive: -11.9%.

As to `CCOC(=O)c1ccc(NP(C)(=O)Oc2cc(C)cc(C)c2)cc1` (stereo not drawn), the activation was inactive: -2.92%.

As to `Cc1cc(C)cc(OP(C)(=O)Nc2ccc(C)cc2C)c1` (stereo not drawn), the activation was inactive: 0.351%.

`COc1ccccc1OP(C)(=O)Nc1cccc(Br)c1` (stereo not drawn): the activation was inactive: -45.2%.

For the compound `Cc1ccc(C)c(NP(C)(=O)Oc2ccccc2)c1` (stereo not drawn), the activation is inactive: -1.61%.

For `Cc1cc(C)cc(OP(C)(=O)Nc2ccccn2)c1` (stereo not drawn), the activation is inactive: 25.9%.

As for `CP(=O)(Nc1cccc(Br)c1)Oc1ccccc1` (stereo not drawn), the activation was inactive: 3.75%.
